These results are taken from patent US9023398B2, “Method for improving the aqueous solubility of poorly-soluble substances” (Kabushiki Kaisha Sangi, priority 2009, dated 2015).

Data set [1] is described as follows: Dissolution test of poorly-soluble substances using distilled water.
Data set [2] in a line: Dissolution test of poorly-soluble substances using 2nd fluid for disintegration test (pH 6.8) of the Japanese Pharmacopoeia. The class given is physicochemical.

On to `O=[N+]([O-])O[C@H]1CO[C@H]2[C@@H]1OC[C@H]2O[N+](=O)[O-]` [compound 30, Isosorbide Dinitrate], for which the Dissolved amount is 3465.7 µg/mL in data set [1] (water, elution time 3 min); 3393.1 µg/mL in data set [1] (water, elution time 10 min); 3466.0 µg/mL in data set [1] (water, elution time 360 min); 7156.8 µg/mL in data set [2] (elution time 3 min); 7236.5 µg/mL in data set [2] (elution time 120 min).
`Nc1ncnc2nc[nH]c12` [compound 45, Adenine] returned a Dissolved amount in data set [1] (Adenine, water, elution time 120 min) of 1657.8 µg/mL.
Regarding `CN/C(=N/CCSCc1nc[nH]c1C)NC#N` [compound 19, Cimetidine], the Dissolved amount was 6770.2 µg/mL in data set [1] (Dissolution test using water, elution time 3 min); 10921.2 µg/mL in data set [2] (elution time 10 min); 11139.3 µg/mL in data set [2] (elution time 30 min).
In turn, `CC[C@H]1OC(=O)[C@H](C)[C@@H](O[C@H]2C[C@@](C)(OC)[C@@H](O)[C@H](C)O2)[C@H](C)[C@@H](O[C@@H]2O[C@H](C)C[C@H](N(C)C)[C@H]2O)[C@](C)(O)C[C@@H](C)C(=O)[C@H](C)[C@@H](O)[C@]1(C)O` [compound 28, Erythromycin] came in with a Dissolved amount in data set [2] (elution time 3 min) of 2556.3 µg/mL.
In turn, `Cc1ccc(S(=O)(=O)NC(=O)NN2CC3CCCC3C2)cc1` (centres unmarked) [compound 32, Gliclazide] registered a Dissolved amount in data set [2] (Gliclazide, elution time 10 min) of 206.1 µg/mL.
